Measured values reported in article PMC7703809 (2020).
Non-standard residues stand in square brackets, D forms with d. No end group written: not given here. *: point of attachment. Benzoyl(4-octyl) = CCCCCCCCc1ccc(C(=O)*)cc1; pT = C[C@@H](OP(=O)(O)O)[C@H](N)C(=O)O

Legend:
[1] = molecular target: T1, PLK1 fluorescein tracer phosphopeptide (also: fluorescein label, place not given here); test: fluorescence polarization
T1 chain: MAGPMQS[pT]PLNGAKK

[2] = molecular target: T2, FLIP 19; test: fluorescence polarization competition
T2 chain: {4‑butylbenzoyl}-S[pT]PNGL

[3] = molecular target: T3, chimeric peptide 8; test: fluorescence polarization competition
T3 chain: GPLATS[pT]PNGL

[4] = molecular target: T4, FLIP 20; test: fluorescence polarization competition
T4 chain: {4‑hexylbenzoyl}-S[pT]PNGL

[5] = molecular target: T5, FLIP 12; test: fluorescence polarization competition
T5 chain: {4‑ethoxybenzoyl}-S[pT]PNGL

[6] = molecular target: T6, PBIP phosphopeptide 4 (Homo sapiens); test: fluorescence polarization competition
T6 chain: Ac-PLHS[pT]AI

[7] = molecular target: T7, FLIP 11; test: fluorescence polarization competition
T7 chain: {4‑methoxybenzoyl}-S[pT]PNGL

[8] = molecular target: T8, FLIP 15; test: fluorescence polarization competition
T8 chain: {4‑phenethoxybenzoyl}-S[pT]PNGL

[9] = molecular target: T9, FLIP 14; test: fluorescence polarization competition
T9 chain: {4‑fluorobenzyloxybenzoyl}-S[pT]PNGL

[10] = molecular target: T10, Cdc25C phosphopeptide 1 (Homo sapiens); test: fluorescence polarization competition
T10 chain: LLCS[pT]PNGL

[11] = molecular target: T11, PBIP phosphopeptide 6 (Homo sapiens); test: fluorescence polarization competition
T11 chain: Ac-PLHS[pT]A

[12] = molecular target: T12, FLIP 16; test: fluorescence polarization competition
T12 chain: {4‑thiomethylbenzoyl}-S[pT]PNGL

[13] = molecular target: T13, chimeric peptide 9; test: fluorescence polarization competition
T13 chain: Ac-PLHS[pT]PKNG

[14] = molecular target: T14, FLIP 17; test: fluorescence polarization competition
T14 chain: {4‑methylaminobenzoyl}-S[pT]PNGL

[15] = molecular target: T15, chimeric peptide 3; test: fluorescence polarization competition
T15 chain: Ac-PLHS[pT]PNGL

[16] = molecular target: T16, FLIP 18; test: fluorescence polarization competition
T16 chain: {4‑propylaminobenzoyl}-S[pT]PNGL

[17] = molecular target: T17, FLIP 21; test: fluorescence polarization competition
T17 chain: {Benzoyl(4-octyl)}-S[pT]PNGL

[18] = molecular target: T18, PLK3 consensus peptide 7; test: fluorescence polarization competition
T18 chain: GPLATS[pT]PKNG

[19] = molecular target: T19, PBIP phosphopeptide 5 (Homo sapiens); test: fluorescence polarization competition
T19 chain: Ac-LHS[pT]AI

B1: PLK1 PBD 367-603 (protein)
chain: GEVVDCHLSDMLQQLHSVNASKPSERGLVRQEEAEDPACIPIFWVSKWVDYSDKYGLGYQLCDNSVGVLFNDSTRLILYNDGDSLQYIERDGTESYLTVSSHPNSLMKKITLLKYFRNYMSEHLLKAGANITPREGDELARLPYLRTWFRTRSAIILHLSNGSVQINFFQDHTKLILCPLMAAVTYIDEKRDFRTYRLSLLEEYGCCKELASRLRYARTMVDKLLSSRSASNRLKAS
Kd [1]: 4.6 nM
IC50 [2]: 2500 nM
IC50 [3]: 11 nM
IC50 [4]: 1000 nM
IC50 [5]: 15900 nM
IC50 [6]: 64 nM
IC50 [7]: 21900 nM
IC50 [8]: 4500 nM
IC50 [9]: 5000 nM
IC50 [10]: 170 nM
IC50 [11]: 460 nM
IC50 [12]: 3000 nM
IC50 [13]: 32 nM
IC50 [14]: 11200 nM
IC50 [15]: 60 nM
IC50 [16]: 5400 nM
IC50 [17]: 360 nM
IC50 [18]: 5.7 nM
IC50 [19]: 1570 nM
